{"source": "ChEMBL document CHEMBL6109055", "about": "“Naphtho[1,2-b][1,4]diazepinedione-Based P2X4 Receptor Antagonists from Structure-Activity Relationship Studies toward PET Tracer Development” (J Med Chem, 2025)", "target": "P2X purinoceptor 4 (Homo sapiens, UniProt Q99571)", "assay": "Antagonist activity at human P2X4 receptor overexpressed in human 1321N1 cells assessed as inhibition of ATP-induced calcium responses by Fluo-4 AM/Ca2+ Flux assay", "assay_type": "cell-based", "data": [{"compound": "Cc1ccccc1CS(=O)(=O)Nc1ccc(N2C(=O)CC(=O)Nc3c2ccc2ccccc32)cc1", "values": [{"measurement": "IC50", "value": 15, "unit": "nM"}]}, {"compound": "O=C1CC(=O)N(c2ccc(NS(=O)(=O)c3ccccc3)cc2)c2ccc3ccccc3c2N1", "values": [{"measurement": "IC50", "value": 1620, "unit": "nM"}]}]}
